Measured values reported in patent publication US6576261B1, “Potentiation of inclusion complex formation of cyclodextrin derivatives” (priority 1999, dated 2003).

Chains of the proteins cited; added tags and fusions are not shown. Residues count along the entry.
UniProt P01308, 25-54 limits assumed, species assumed: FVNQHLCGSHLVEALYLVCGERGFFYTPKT
UniProt P01308, 90-110 limits assumed, species assumed: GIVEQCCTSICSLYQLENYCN

Target: insulin (Homo sapiens, UniProt P01308)
Assay: Stabilization and solubilization of insulin by highly methylated cyclodextrins
Settings: cyclodextrins at 2 or 4% in phosphate buffered solution, insulin 1 mg/ml, final pH less than 6

insulin was tested, and the “cooperative effects of two hosts” value was “No cooperative effects were found”.
